Target: Kappa-type opioid receptor (Rattus norvegicus, UniProt P34975)
Experiment: Displacement of bound [3H]diprenorphine in cloned rat Opioid receptor kappa 1 expressed in Sf9 insect cells

By UniProt entry, the sequences of proteins in these tests, tags left out. Where a name states a change or a piece, a line headed by the entry shows the natural chain unless it says otherwise.
UniProt P34975: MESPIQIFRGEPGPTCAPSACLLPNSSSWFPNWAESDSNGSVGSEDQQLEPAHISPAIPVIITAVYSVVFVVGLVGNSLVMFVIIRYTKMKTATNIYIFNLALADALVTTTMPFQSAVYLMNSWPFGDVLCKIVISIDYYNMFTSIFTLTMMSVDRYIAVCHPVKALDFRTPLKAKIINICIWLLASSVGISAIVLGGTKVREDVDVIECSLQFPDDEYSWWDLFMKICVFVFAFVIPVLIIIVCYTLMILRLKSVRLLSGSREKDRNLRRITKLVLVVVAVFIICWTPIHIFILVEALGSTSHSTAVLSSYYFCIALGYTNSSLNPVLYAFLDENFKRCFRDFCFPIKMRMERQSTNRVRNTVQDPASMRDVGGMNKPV

SMILES | Ki
CC(C)[C@@H](CN1CC=CC1)N(C)C(=O)Cc1ccc(Cl)c(Cl)c1 | 5.72 nM
CSCC[C@@H](CN1CC=CC1)N(C)C(=O)Cc1ccc([N+](=O)[O-])cc1 | 3.06 nM

Reference: ChEMBL document CHEMBL1134881, “3-Pyrroline containing arylacetamides: a novel series of remarkably selective kappa-agonists” (2002)
